The Ki is the equilibrium dissociation constant of an inhibitor or competing ligand from its target.

This assay addresses Opioid receptor (Rattus norvegicus, UniProt P33533+P34975+P33535). In words: Compound was evaluated for the binding affinity towards opioid receptor from rat whole brain using [3H]etorpine (33.2 Ci/mmol,0.2nanoM)as radioligand.
`O=C(O)c1cc2c3c(ccc2[nH]1)OCC(CN1CCC2(CC1)C(=O)NCN2c1ccccc1)O3` (centres undefined) gave a Ki of 131 nM.
Then `O=C(OCc1ccccc1)c1cc2c3c(ccc2[nH]1)OCC(CN1CCC2(CC1)C(=O)NCN2c1ccccc1)O3` (centres undefined), with 14.4 nM; and `COC(=O)c1cc2c3c(ccc2[nH]1)OCC(CN1CCC(n2c(O)nc4ccccc42)CC1)O3` (centres undefined), with 4.3 nM; and `COC(=O)c1cc2c3c(ccc2[nH]1)OCC(CN1CCC(Nc2ccccc2)(C(N)=O)CC1)O3` (centres undefined), with 3230 nM.

Values taken from ChEMBL document CHEMBL1125523, “Novel indolodioxanes with antihypertensive effects: potent ligands for the 5-HT1A receptor” (J Med Chem, 1992).
